This passage reports IC50 results from patent US20220402950A1, “SUBSTITUTED BENZIMIDAZOLES AS PAD4 INHIBITORS” (BRISTOL-MYERS SQUIBB COMPANY, priority 2018, published 2022).

Protein sequences, listed by entry. Tags and fused reporters are not part of them.
UniProt Q9UM07, whole entry: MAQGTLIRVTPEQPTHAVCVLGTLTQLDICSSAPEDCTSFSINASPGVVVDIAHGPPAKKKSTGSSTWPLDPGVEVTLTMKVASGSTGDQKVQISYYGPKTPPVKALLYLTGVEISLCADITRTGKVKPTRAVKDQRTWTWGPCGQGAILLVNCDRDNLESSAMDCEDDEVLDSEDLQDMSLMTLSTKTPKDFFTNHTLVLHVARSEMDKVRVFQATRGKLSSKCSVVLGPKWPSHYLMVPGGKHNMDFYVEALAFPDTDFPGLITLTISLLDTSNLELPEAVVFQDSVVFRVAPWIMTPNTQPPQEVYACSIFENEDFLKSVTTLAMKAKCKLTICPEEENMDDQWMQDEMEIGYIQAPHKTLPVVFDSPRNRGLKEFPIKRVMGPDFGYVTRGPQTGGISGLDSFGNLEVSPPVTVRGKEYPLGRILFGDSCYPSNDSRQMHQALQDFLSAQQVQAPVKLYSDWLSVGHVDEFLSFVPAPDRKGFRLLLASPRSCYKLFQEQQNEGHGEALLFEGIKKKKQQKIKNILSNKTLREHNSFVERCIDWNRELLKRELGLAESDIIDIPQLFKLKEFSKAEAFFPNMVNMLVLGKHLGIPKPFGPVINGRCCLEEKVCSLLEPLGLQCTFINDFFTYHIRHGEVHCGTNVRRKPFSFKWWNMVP

The target of the assay is human PAD4 (hPAD4) (Homo sapiens, UniProt Q9UM07). Nature of the assay: RFMS Human PAD4 Functional Assay. The class given is biochemical. The note with it: 5 nM hPAD4, 250 μM BAEE. On the procedure: RFMS Human PAD4 Functional Assay:
Compounds were solubilized in 100% DMSO to achieve a 10 mM compound concentration. Compound stock solutions were stored at RT. A series of dilutions were prepared in DMSO and mixed 8 times with 20 μL mixing volume. Final top concentration of compound in the assay is 50 μM.
0.13 μL of compound solution was added to 13 μL of 10 nM PAD4 in assay buffer. After 30 min 13 μl of 500 μM of BAEE was added in 25 mM hepes, pH 7.5, 5 mM NaCl, 1 mM DTT, 0.2 mg/ml BSA, 0.01% CHAPS, 50 μM Calcium, 5 μM TPEN was added and the reaction incubated for 90 min at 37° C. The enzymatic reaction was quenched by addition of 15 μl of 6.1N TCA, 100% Final Concentration is 20%, 35 μl of 8.5 mM phenyl glyoxal (final concentration 4 mM) is then added and the reaction is incubated for 30 min at 37° C.
After 30 minutes the plates are spun down to remove all precipitate. The enzyme reaction was quenched with an equal volume of methanol containing internal standard (modified citrulline). Samples were loaded onto the Rapid Fire RF300 system (Agilent) wherein they were first sipped for 1000 ms and then directly loaded to a C18 separations cartridge using a mixture of acetonitrile containing 0.01% formic acid for 3000 ms desalting. The flow rate of the mobile phase was 1.5 ml/min. […]

Like-named read-outs stand apart in the source and are kept apart here.

With `COc1cc(C(=O)N2CC3CCC2[C@@H]3N)cc2nc(-c3cc4cccc(Nc5ccccn5)c4n3CC3CC3)n(C)c12` (stereo partly drawn) [Example 168, ((7R)-7-amino-2-azabicyclo[2.2.1]heptan-2-yl)(2-(1-(cyclopropylmethyl)-7-(pyridin-2-ylamino)-1H-indol-2-yl)-7-methoxy-1-methyl-1H-benzo[d]imidazol-5-yl)methanone], 195 nM corresponded to half-maximal inhibition (hPAD4 RFMS IC50, human PAD4, rapid-fire mass spectrum (RFMS) assay) (IC50).
“((1R,4R,7R)-7-amino- 2- azabicyclo[2.2.1]heptan- 2-yl)(2-(7-chloro-1- (cyclopropylmethyl)- 1H-indol-2-yl)-7- methoxy-1-methyl-1H- benzo[d]imidazol-5- yl)methanone [Example 144]”: for the setting “human PAD4, rapid-fire mass spectrum (RFMS) assay, read-out: hPAD4 RFMS IC50”, the IC50 (commonly the concentration that gives 50% inhibition) turned out to be 195 nM.
